{
  "source": "ChEMBL document CHEMBL1149952",
  "about": "“Inhibition of human leukocyte elastase (HLE) by novel bicyclic -lactams” (Bioorg Med Chem Lett, 1993)",
  "key": {"[1]": {"molecular_target": "T1, Neutrophil elastase (Homo sapiens) (UniProt P08246)", "T1 sequence (whole entry)": "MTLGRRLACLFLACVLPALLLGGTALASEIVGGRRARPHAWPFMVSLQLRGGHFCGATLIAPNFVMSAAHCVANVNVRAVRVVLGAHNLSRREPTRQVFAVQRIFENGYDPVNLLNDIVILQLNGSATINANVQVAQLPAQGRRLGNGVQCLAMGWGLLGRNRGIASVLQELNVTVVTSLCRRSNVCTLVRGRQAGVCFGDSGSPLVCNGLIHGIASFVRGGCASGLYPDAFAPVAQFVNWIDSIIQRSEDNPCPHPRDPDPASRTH"}, "[2]": {"molecular_target": "T1, Neutrophil elastase (Homo sapiens)", "remark": "listed apart in the source"}, "[3]": {"molecular_target": "T1, Neutrophil elastase (Homo sapiens)", "remark": "listed apart in the source"}},
  "data": [
    {"smiles": "C[C@@H](O)[C@H]1C(=O)N2S/C(=C/C(=O)OC(C)(C)C)C[C@H]12", "values": [
      {"measurement": "k off", "setting": "[1]", "result": 0.0004, "unit": "s⁻¹"},
      {"measurement": "k on", "setting": "[2]", "result": 130, "unit": "M⁻¹ s⁻¹"},
      {"measurement": "kOH", "setting": "[3]", "result": 20, "unit": "M⁻¹ s⁻¹"}
    ]},
    {"smiles": "C[C@@H](O)[C@H]1C(=O)N2C/C(=C/C(=O)OC(C)(C)C)S[C@H]12", "values": [
      {"measurement": "k off", "setting": "[1]", "result": 0.00067, "unit": "s⁻¹"},
      {"measurement": "k on", "setting": "[2]", "result": 170, "unit": "M⁻¹ s⁻¹"},
      {"measurement": "kOH", "setting": "[3]", "result": 0.08, "unit": "M⁻¹ s⁻¹"}
    ]}
  ]
}
